Assay results as given in patent US20180273639A1 (YEDA RESEARCH AND DEVELOPMENT, published 2018).

Assays:
[1] = biological target: T1, Mus musculus QSOX1 (recombinant MmQSOX1) (Mus musculus); assay: oxygen consumption assay on DTT, 50 nM enzyme, fitted to a tight-binding inhibition model
T1 chain: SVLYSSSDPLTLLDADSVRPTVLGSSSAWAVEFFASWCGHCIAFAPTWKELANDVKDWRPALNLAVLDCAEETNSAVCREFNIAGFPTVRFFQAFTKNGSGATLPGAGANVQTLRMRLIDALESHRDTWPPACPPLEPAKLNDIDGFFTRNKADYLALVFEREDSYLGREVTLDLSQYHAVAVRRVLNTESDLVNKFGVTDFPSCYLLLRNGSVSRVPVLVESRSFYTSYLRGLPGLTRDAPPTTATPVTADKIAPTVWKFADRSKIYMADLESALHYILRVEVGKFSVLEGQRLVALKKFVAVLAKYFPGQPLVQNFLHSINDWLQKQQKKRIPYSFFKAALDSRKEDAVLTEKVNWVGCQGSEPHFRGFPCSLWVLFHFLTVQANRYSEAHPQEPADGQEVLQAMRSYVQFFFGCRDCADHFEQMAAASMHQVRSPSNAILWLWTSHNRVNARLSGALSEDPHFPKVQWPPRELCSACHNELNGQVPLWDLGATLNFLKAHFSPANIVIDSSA
Description: (§1) MmQSOX1 inhibition by MAb492gen was next quantified and compared to inhibition by the natural antibody MAb316.1. In one assay, MmQSOX1 activity was measured by the number of free thiols remaining at the end of the oxidation reaction of denatured and reduced RNase A. Various MAb492gen concentrations were scanned against two MmQSOX1 concentrations. In both cases the IC₅₀ values were similar to the MmQSOX1 concentration used in the assay (FIG. 3B), indicating tight-binding inhibition. In a second assay MmQSOX1 catalytic activity on DTT was measured using the oxygen consumption assay, providing data that were fitted to a model of tight-binding inhibition [Bieth, J. G. (1995) Methods Enzymol. 248: 59-84] to yield an inhibitory constant (Kᵢ) of 2.2±0.5 nM (FIG. 3C and Table 4, below).
(§2) A QSOX1-targeting antibody with dual species specificity, i.e., that inhibits HsQSOX1 as well as MmQSOX1, would be a valuable tool that could be used in animal models, and in turn, with minimal engineering, in clinical trials. […] In contrast, though no selection for binding of HsQSOX1 was performed during its development, MAb492gen retained tight-binding activity against HsQSOX1, having a Kᵢ value of 1.6±0.6 nM for HsQSOX1 (FIG. 7B and Table 4, above) compared to 0.9±0.1 nM previously measured for MAb492.1 [Grossman I. et al. (2013), supra].

[2] = biological target: T2, Homo sapiens QSOX1 (recombinant HsQSOX1) (Homo sapiens, UniProt O00391 33-546, limits assumed); assay: as above
T2 construct: Recombinant enzyme expressed as in Grossman et al. 2013; also called human QSOX1
T2 sequence: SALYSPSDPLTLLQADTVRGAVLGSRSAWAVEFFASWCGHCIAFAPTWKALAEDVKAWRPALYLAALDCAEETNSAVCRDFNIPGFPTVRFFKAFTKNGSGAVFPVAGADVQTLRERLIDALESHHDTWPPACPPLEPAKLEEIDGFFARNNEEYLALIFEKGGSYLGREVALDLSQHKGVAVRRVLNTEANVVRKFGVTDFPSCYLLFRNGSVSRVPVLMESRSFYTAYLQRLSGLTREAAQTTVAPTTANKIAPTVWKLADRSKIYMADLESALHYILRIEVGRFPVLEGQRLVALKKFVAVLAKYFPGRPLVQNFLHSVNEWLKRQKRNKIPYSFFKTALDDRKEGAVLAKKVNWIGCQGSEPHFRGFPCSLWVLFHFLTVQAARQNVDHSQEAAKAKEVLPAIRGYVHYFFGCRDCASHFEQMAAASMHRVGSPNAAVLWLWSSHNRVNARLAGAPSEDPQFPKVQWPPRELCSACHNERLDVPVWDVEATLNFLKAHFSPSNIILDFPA
Description: as §1, §2

[3] = biological target: T1, Mus musculus QSOX1 (recombinant MmQSOX1); assay: oxygen consumption assay on DTT, fitted to a tight-binding inhibition model
Description: as §1

[4] = biological target: T3, biotinylated MmQSOX1Trx (Mus musculus, UniProt Q8BND5 36-275, Biotin on the lysine of the C-terminal AviTag (tag not in the letters); in early screening rounds pre-loaded with streptavidin-APC); assay: yeast-surface display flow cytometry, mean APC fluorescence against MmQSOX1Trx concentration, binding isotherm
T3 construct: Used for yeast-surface display; in the first screening rounds pre-loaded with streptavidin-APC in a 1:4 molar ratio; also called MmQSOX1Trx with AviTag; not shown: purification tag
T3 sequence: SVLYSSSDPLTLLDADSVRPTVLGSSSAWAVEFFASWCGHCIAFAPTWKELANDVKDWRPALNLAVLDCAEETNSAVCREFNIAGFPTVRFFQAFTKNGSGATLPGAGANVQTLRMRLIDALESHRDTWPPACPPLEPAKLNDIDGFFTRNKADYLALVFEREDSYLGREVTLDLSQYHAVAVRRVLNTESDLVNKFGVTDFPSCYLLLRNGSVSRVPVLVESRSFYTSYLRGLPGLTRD
Description: FIGS. 3K-L illustrate histograms of red fluorescence (APC bound to streptavidin) representing MmQSOX1Trx binding at various concentrations to the surface of yeast displaying scFv492gen (FIG. 3K). […] For each histogram in FIG. 3K, the mean APC fluorescence was measured and plotted as function of MmQSOX1Trx concentration.
The scFv492.1 construct, without the His-tag and thrombin cleavage site [Grossman I. et al. (2013), supra], was cloned between the NdeI and BamHI sites in the yeast display plasmid pETCON [Fleishman S. J. et al. (2011) Science 332: 816-821]. Mutants of scFv492.1 were prepared on the basis of this plasmid by in vivo recombination in EBY 100 yeast using the LiAc method. Yeast growth and induction of scFv expression were carried out as previously described [Chao G. et al. (2006) Nat. Protoc. 1: 755-768], except that for induction 10 g raffinose per liter were added to the media and the cultures were grown for 16 hours at 20° C. Yeast were labeled with anti-cMyc (Santa Cruz Biotechnology) at a dilution 1:50 to monitor scFv expression, and with biotinylated MmQSOX1Trx (for concentrations see Table 3, below) for 45 minutes. […] Display of scFv clones and MmQSOX1Trx binding was monitored by Alexa 488 and APC fluorescence, respectively, using an Accuri C6 flow cytometer. […]

B1: MAb492gen (antibody, V domains shown)
VH: QVQLKQSGPGLVAPSQSLSITCTVSGFSLTGYSVIWVRQSPGKGLEWLGMIWGDGRTEYKSALKSRLSITKDNSKSQVFLKMNSLQTDDTARYFCASDSMDPGSFAYWGQGTLVTVSA
VL: DVVMTQTHKFMSTSVGDRVSITCKASQDVSGAVAWYQQKSGQSPKLLISMASQRYTGVPDRFTGSGSGTDFTFTISSVQAEDLAVYYCQQHYAIPLTFGAGTKLELK
notes: Recombinant full-length antibody with the variable regions of scFv492gen in human IgG1 expression vectors, made in HEK 293T cells
Ki [1]: 2.2 nM | Ki [2]: 1.6 nM

B2: MAb316.1 (antibody, V domains shown)
VH: QVQLQQSGPELVKPGASVKISCKASGYSFTSYYIHWVKQRPGQGLEWIGWIYPGSYNTEYSEKFKGKATLTADTSSSTAYMQLSSLTSEDSAVYYCARSEDWFAYWGQGTLVTVS
VL: QIVLTQSPAIMSASPGEKVTISCSASSSVSYMYWYHQKPGSSPKPWIYRTSNLASGVPARFSGSGSGTSYSLTISSMEAEDAATYYCQQYHSYPLTFGAGTKLELK
notes: Hybridoma antibody from QSOX1 knock-out mice immunised with MmQSOX1
Ki [3]: 16 nM

B3: scFv492gen (scFv, V domains shown)
VH: B1 VH
VL: B1 VL
notes: 12 mutations relative to scFv492.1; not shown: scFv linker and domain order; yeast display fusion partner and cMyc tag (pETCON)
Kd [4]: 65 nM
